{"source": "patent US7119100B2", "about": "(priority 2001, dated 2006)", "key": {"Wister rats": {"test_system": "Wister rats", "details": "rat, in vivo"}, "Swiss mice [1]": {"test_system": "Swiss mice", "details": "mouse, in vivo"}, "Swiss mice [2]": {"test_system": "Swiss mice", "details": "male, mouse, in vivo"}}}
{"smiles": "CN1CC[C@]23c4c5ccc(O)c4O[C@H]2[C@@H](O)C=C[C@H]3[C@H]1C5", "note": "[morphine]", "values": [{"measurement": "number of total abstinence signs compared with saline group", "setting": "Wister rats", "result": "significant increase"}, {"measurement": "Time spent in drug-paired place", "setting": "Swiss mice [1]; male, Swiss, 10 mg/kg", "result": "566.6 ± 131.1", "unit": "min"}, {"measurement": "induction of Conditioned Place Preference", "setting": "Swiss mice [1]", "result": "induced significant Conditioned Place Preference"}, {"measurement": "Percent of jumping", "setting": "Swiss mice [2]", "result": 100, "unit": "%"}, {"measurement": "Number of jumping", "setting": "Swiss mice [2]; sc", "result": "49.5 ± 56.0"}, {"measurement": "loss weight", "setting": "Swiss mice [2]; sc", "result": "1.6 ± 0.2", "unit": "g"}]}
